Laboratory results: patent US12642859B2, “Macropinocytosis selective monobody-drug conjugates” (priority 2020, dated 2026)

Test system: autochthonous KPC pancreatic tumor
Experiment: Uptake in genetically modified (autochthonous KPC) mouse model of PDAC
Design: species or system mice
Conditions: ex vivo analysis, CK8 staining
Procedure: FIGS. 10A-10D show FN-Cy5.5 uptake in a genetically modified mouse model of PDAC. Autochonous LSL-KPC^G12V; LSLp53^R172H; p48Cre (KPC, 4mo) and wild type (WT, 4 mo) mice were treated with FN-Cy5.5. Ex vivo images of FIG. 10A depict biodistribution in various organs at 1 hr and 24 hr. […] In FIGS. 10C-10D, ex vivo images (6 hr) depict tumor uptake, retention, and colocalization with a cancer cell maker (CK8).
Mice were sacrificed and ex vivo analysis was carried out on tumors displaying albumin-FITC (green), FN-Cy5.5 (purple), tumor cell marker CK8 (orange), and dapi (blue).
Additionally, similar experimentation was carried out with co-delivery of an albumin bound FITC and FN-Cy5.5. Albumin based therapy is a current standard of care in PDAC treatment. Albumin-FITC and FN-Cy5.5 both colocalized within the established pancreatic tumors in mice (FIG. 11).

## albumin-FITC
  localization within tumor on co-delivery of albumin-FITC and FN-Cy5.5: larger accumulation in the extracellular tumor microenvironment
